From patent US20260193179A9
This is a selection: effects in other tests are not listed, and their absence says nothing.

Target: Thrombin (Homo sapiens, UniProt P00734)
Experiment: Thrombin inhibition
Type: biochemical

Question: For n1nc2c([nH]1)c1nn[nH]c1c1nn[nH]c21, which “Thrombin Ki (μM)” value is on record?
Answer: The value was “No Activity”.
